# Source: PubChem BioAssay AID652039 (The Scripps Research Institute Molecular Screening Center, 2013)
# Sequences of proteins named here, by UniProt entry; tags and fusion partners are left off.
# UniProt P49862, whole entry: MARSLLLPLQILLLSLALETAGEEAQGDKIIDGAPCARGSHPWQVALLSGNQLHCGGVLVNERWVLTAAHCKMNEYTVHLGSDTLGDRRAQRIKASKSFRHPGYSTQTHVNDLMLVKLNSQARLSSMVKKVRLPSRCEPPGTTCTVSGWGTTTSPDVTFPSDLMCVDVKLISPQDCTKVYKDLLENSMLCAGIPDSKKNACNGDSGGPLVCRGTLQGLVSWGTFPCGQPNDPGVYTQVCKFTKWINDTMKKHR
# Only a part is listed here, and it is no random draw. Active and inactive are the calls of the source.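 Rule for the calls: active = activation above the mean of all tested compounds plus 3 SD, computed per campaign excluding outliers beyond control limits (cut at about 13% in these data); inactive = the rest.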
# Biological target: Kallikrein-7 (Homo sapiens) (UniProt P49862)
# Test: activation of human kallikrein-7 proenzyme – biochemical, fluorescence intensity, primary screen (AID 652039)
# Details: purified proKLK7, EDANS-DABCYL substrate fluorescence; at 7 µM; active compounds read high; 100% is mature enzyme control, 0% vehicle
row,Compound,activation
1,CCC(=O)N(c1ccccc1)C1(COC)CCN(CCc2cccs2)CC1,inactive: 0.36%
2,CCC(=O)N(c1ccccc1)C1(COC)CCN(CCn2nnn(CC)c2=O)CC1,inactive: 0.09%
